This is an account of results in patent publication US20140209542A1, “EXTRACORPOREAL CLEARANCE OF ORGANOPHOSPHATES FROM BLOOD ON AN ACOUSTIC SEPARATION DEVICE” (published 2014).

The nature of this series: Calculated contrast factors of encapsulated fluids and blood factors. Particulars: when suspended in blood; calculated from density and bulk modulus.

Take air: the calculated contrast factor is −3.55. To `OCC(O)CO` belongs “+0.73”.
